Assay results published in US20130261142A1, “COMPOUNDS USED FOR TREATING CANCER AND THE USE THEREOF” (priority 2010, published 2013).

System: MCF-7 SPS cells
Assay: LOPAC compounds tested on MCF-7 SPS cells (Table 2)

SMILES: O=[N+]([O-])c1ccc(-c2nc(-c3ccc(F)cc3)c(-c3ccncc3)[nH]2)cc1 [PD 169316, 4-(4-Fluorophenyl)-2-(4-nitrophenyl)-5-(4-pyridyl)-1H-imidazole]
- Cancer cell survival (%): 8.8%
